Tested on: ALS MNs
Assay: Motor neuron survival assay (ISL1+ MNs) in ALS iPSC-derived MNs
Assay type: cell-based, human
Settings: treatment from day 28, NAM 0.5 mM, C12 5 μM, Riluzole 5 μM, Edaravone 100 μM, siRNA 10 pmol
Source text: Cultures were then fixed with 4% PFA on Day 25, 28, 31 and 35 respectively for quantification of motor neuron survival. Fixed cultures were stained with the motor neuron marker ISL1, and cellular nuclei were counterstained with DAPI before imaging on the high content microscope Phenix (Perkin Elmer). Percentage of ISL1+ cells was normalized to total nuclei number. To calculate normalized survival index, the percentage of ISL1+/DAPI at day 25 was arbitrary set as 1.0, and motor neuron survival on later days were in turn normalized to day 25 cultures.
Motor neuron cultures at day 27 were dissociated with Accutase and seeded at 2 million cells per well in a 6-well plate. At day 28, non-targeting siRNA or siRNAs were individually complexed with Lipofectamine RNAiMAX following manufacturer's instructions and added to the motor neuron cultures. For each well, 10 pmol of siRNAs and 8 μl of Lipofectamine RNAiMAX were used. Cells were either harvested for RNA and protein analyses, fixed for immunostaining or metabolic flux analysis were performed 3 days after siRNA transfection.

Nc1nc2ccc(OC(F)(F)F)cc2s1 [Riluzole]
MN survival (ISL1+ MNs): promoted ALS MN survival

Reference: patent US12662672B2, “Method of promoting survival and/or function of a motor neuron and related agents, uses and methods” (Agency for Science, Technology and Research, priority 2019, dated 2026)
